Results as given in PMC8395285, “Novel 2-(Adamantan-1-ylamino)Thiazol-4(5H)-One Derivatives and Their Inhibitory Activity towards 11β-HSD1—Synthesis, Molecular Docking and In Vitro Studies” (International Journal of Molecular Sciences, 2021).

By UniProt entry, the sequences of proteins in these tests, tags left out. Where a name states a change or a piece, a line headed by the entry shows the natural chain unless it says otherwise.
UniProt P28845: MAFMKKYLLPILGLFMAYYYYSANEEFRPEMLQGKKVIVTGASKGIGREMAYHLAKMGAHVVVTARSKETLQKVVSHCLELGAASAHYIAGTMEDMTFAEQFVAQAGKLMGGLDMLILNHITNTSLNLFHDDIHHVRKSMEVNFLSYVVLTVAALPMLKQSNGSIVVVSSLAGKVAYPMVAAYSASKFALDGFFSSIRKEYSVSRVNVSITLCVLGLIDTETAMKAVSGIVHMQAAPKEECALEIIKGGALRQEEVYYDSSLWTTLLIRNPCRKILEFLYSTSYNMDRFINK

Molecular target: T1, 11β-HSD1 (Homo sapiens, UniProt P28845)
T1 construct: Human liver microsomes were used as a source of 11β-HSD1 enzyme; tissue XenoTech Lot No.1410013; host or cells: pooled human liver microsomes, mixed gender
Assay: Inhibition of 11β-HSD1 (cortisone to cortisol, human liver microsomes, cortisol ELISA)
Assay type: biochemical
Settings: concentrations 0.625-10.0 µM, read from the chart
Method: 11β-HSD1 assays: carbenoxolone (sodium salt) (Cayman Chemical Company, Ann Arbor, MI, USA), cortisone, NADPH tetrasodium salt, phosphate buffer powder, (Sigma-Aldrich, Poznań, Poland), Pooled human liver microsomes, mixed gender, 1 mL, 20 mg/mL Lot No.1410013-XenoTech, Cortisol Elisa Ref DkO001 Lot No. 4715A (DiaMetra, Spello, Italy), ELISA Kit for 11-Beta-Hydroxysteroid Dehydrogenase Type 1 Lot No.L160706125-(Cloud-Clone Corp., Wuhan, China), PBS Lot No. H161008 (Pan Biotech, Aidenbach, Germany).
. Standard 96-well microplates were filled with reagent mixture: cortisone/NADPH (20 μL, to achieve the final concentration of 200 nM/2 μM), microsomes (10 μL, 1.13 μg of 11β-HSD1 in 1 mL) solution in PBS (final amount of 2.5 μg), phosphate buffer (60 μL, pH 7.4), and 10 µL of compounds 3a–3j dissolved in the mixture containing 1% of DMSO and 99% of water. The resulting solution with a final volume of 100 µL was incubated for 2.5 h at 37 °C. To stop the reaction, 10 µL of a 100 µM solution of 18β-glycyrrhetinic acid in PBS was added. The level of cortisol obtained in the reaction was measured by commercially available ELISA kit.
Calibration curves to determine IC50 values for compounds 3a–3j were obtained using their solutions at concentrations of 0.625, 1.25, 2.5, 5.0, and 10.0 µM and using standard procedure and conditions as described in the previous sections. […]

IC50: 160 ± 150 nM
SMILES: CC1(C)[C@@H](OC(=O)CCC(=O)O)CC[C@]2(C)[C@H]3C(=O)C=C4[C@@H]5C[C@@](C)(C(=O)O)CC[C@]5(C)CC[C@@]4(C)[C@]3(C)CC[C@@H]12 [carbenoxolone, reference compound]
